Patent publication US5883097A, “Soluble azole antifungal salt” (Schering Corporation, priority 1998, dated 1999)

Test system: dermatophytes, T. rubrum, T. mentagrophytes, and T. tonsurans
Assay: In vitro antifungal activity (MIC/MFC) against dermatophytes
Details: N=6, after 48 or 78 hours

Compound: CCC(C(C)O)n1ncn(-c2ccc(N3CCN(c4ccc(OCC5COC(Cn6cncn6)(c6ccc(F)cc6F)C5)cc4)CC3)cc2)c1=O [compound of formula II, -(2 R-cis)-4-[4-[4-[4-[[-5-(2,4-Difluorophenyl)-tetrahydro-5-(1 H-1,2,4-triazol-1-ylmethyl)furan-3-yl]methoxy]phenyl]-1-piperazinyl]phenyl]-2-4-dihydro-2-[(1 S)-ethyl-2(S)-hydroxypropyl]-3 H-1,2,4-triazol-3-one]
- geometric mean MICs and MFCs compared to fluconazole, dermatophytes: superior antifungal activity
